Membrane permeability of cyclic peptides

Source: CycPeptMPDB (Li et al. 2023), which took these values from Townsend et al. 2020, doi:10.26434/chemrxiv.13335941.v1.

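Conditions beyond the assay type are not listed; see the original paper. The list need not hold all peptides of the study. Entries at the database's floor value (log10 P of -10) are not listed.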

PAMPA is the parallel artificial membrane permeability assay, which has no cells and reads passive diffusion. P is given in units of 10^-6 cm/s (from log10 values with two decimals); larger means faster passage.

compound,PAMPA (10^-6 cm/s)
CC(C)C[C@@H]1NC(=O)[C@H](C)NC(=O)[C@H](Cc2ccccc2)NC(=O)[C@@H](CC(C)C)N(C)C(=O)[C@H]2CCCN2C(=O)[C@H](CC(C)C)NC1=O,2.1
CC(C)C[C@@H]1C(=O)N[C@@H](Cc2ccccc2)C(=O)N2CCC[C@@H]2C(=O)N(C)[C@@H](C)C(=O)N[C@H](CC(C)C)C(=O)N[C@H](CC(C)C)C(=O)N2CCC[C@H]2C(=O)N1C,0.23
CC(C)C[C@@H]1C(=O)N(Cc2ccccc2)CC(=O)N2CCC[C@H]2C(=O)N[C@H](CC(C)C)C(=O)N[C@@H](Cc2ccccc2)C(=O)N2CCC[C@@H]2C(=O)N(C)[C@H](C)C(=O)N1C,0.6
CC(C)C[C@@H]1NC(=O)[C@H](C)NC(=O)[C@H]2CCCN2C(=O)[C@H](Cc2ccccc2)NC(=O)CN(Cc2ccccc2)C(=O)[C@H]2CCCN2C(=O)[C@H](CC(C)C)NC1=O,1.7
CC(C)C[C@H]1NC(=O)[C@@H]2CCCN2C(=O)CN(Cc2ccccc2)C(=O)[C@H](CC(C)C)N(C)C(=O)[C@H](C)NC(=O)[C@@H]2CCCN2C(=O)[C@H](Cc2ccccc2)NC1=O,1
CC(C)C[C@@H]1C(=O)N2CCC[C@H]2C(=O)N(C)[C@@H](CC(C)C)C(=O)N[C@@H](Cc2ccccc2)C(=O)N2CCC[C@@H]2C(=O)N[C@@H](C)C(=O)N(C)[C@@H](CC(C)C)C(=O)N1C,6.5
CC(C)C[C@@H]1NC(=O)C[C@H](Cc2ccccc2)NC(=O)[C@H](Cc2ccccc2)NC(=O)[C@@H](CC(C)C)N(C)C(=O)[C@@H]2CCCN2C(=O)[C@@H](CC(C)C)NC1=O,11
CC(C)C[C@@H]1C(=O)N[C@@H](Cc2ccccc2)C(=O)N(C)[C@H](C)C(=O)N[C@H](CC(C)C)C(=O)N[C@H](CC(C)C)C(=O)N2CCC[C@@H]2C(=O)N1C,1.1
CC(C)C[C@H]1C(=O)N[C@@H](Cc2ccccc2)CC(=O)N2CCC[C@@H]2C(=O)N(C)[C@@H](CC(C)C)C(=O)N[C@@H](Cc2ccccc2)C(=O)N2CCC[C@H]2C(=O)N[C@@H](Cc2ccccc2)CC(=O)N1C,2.8
CC(C)C[C@@H]1NC(=O)[C@@H](C)N(C)C(=O)[C@@H]2CCCN2C(=O)[C@H](Cc2ccccc2)NC(=O)[C@@H](CC(C)C)N(C)C(=O)[C@@H]2CCCN2C(=O)[C@@H](CC(C)C)N(C)C1=O,2.1
CCCN1CC(=O)N(C)[C@H](CC(C)C)C(=O)N(C)[C@@H](CC(C)C)C(=O)N2CCC[C@H]2C(=O)N[C@H](CC(C)C)C(=O)N[C@@H](Cc2ccccc2)C1=O,4.3
CC(C)C[C@@H]1C(=O)N2CCC[C@@H]2C(=O)N(C)[C@@H](CC(C)C)C(=O)N[C@@H](Cc2ccccc2)C(=O)N[C@H](C)C(=O)N[C@H](CC(C)C)C(=O)N1C,0.56
CC(C)C[C@@H]1C(=O)N[C@@H](Cc2ccccc2)C(=O)N2CCC[C@H]2C(=O)N[C@@H](C)C(=O)N[C@H](CC(C)C)C(=O)N(C)[C@@H](CC(C)C)C(=O)N2CCC[C@H]2C(=O)N1C,2.5
CC(C)C[C@@H]1NC(=O)CN(Cc2ccccc2)C(=O)C[C@H](Cc2ccccc2)NC(=O)[C@H]2CCCN2C(=O)[C@H](Cc2ccccc2)NC(=O)[C@@H](CC(C)C)N(C)C(=O)[C@H]2CCCN2C1=O,4.2
CC(C)C[C@@H]1C(=O)N2CCC[C@@H]2C(=O)N(C)[C@@H](CC(C)C)C(=O)N[C@@H](Cc2ccccc2)C(=O)N[C@H](C)C(=O)N(C)[C@@H](CC(C)C)C(=O)N1C,9.5
CCCN1CC(=O)N[C@H](CC(C)C)C(=O)N[C@H](CC(C)C)C(=O)N2CCC[C@@H]2C(=O)N(Cc2ccccc2)CC(=O)N[C@@H](Cc2ccccc2)C(=O)N2CCC[C@H]2C1=O,2.7
CC(C)C[C@@H]1NC(=O)[C@H](CC(C)C)N(C)C(=O)[C@H](C)NC(=O)[C@@H]2CCCN2C(=O)[C@H](Cc2ccccc2)NC(=O)[C@H](CC(C)C)N(C)C(=O)[C@@H]2CCCN2C1=O,2.5

A selection of 2 entries from above:

{"smiles": "CCCN1CC(=O)N[C@H](CC(C)C)C(=O)N[C@H](CC(C)C)C(=O)N2CCC[C@@H]2C(=O)N(Cc2ccccc2)CC(=O)N[C@@H](Cc2ccccc2)C(=O)N2CCC[C@H]2C1=O", "PAMPA (10^-6 cm/s)": "2.7"}
{"smiles": "CC(C)C[C@@H]1C(=O)N[C@@H](Cc2ccccc2)C(=O)N2CCC[C@H]2C(=O)N[C@@H](C)C(=O)N[C@H](CC(C)C)C(=O)N(C)[C@@H](CC(C)C)C(=O)N2CCC[C@H]2C(=O)N1C", "PAMPA (10^-6 cm/s)": "2.5"}